{"sequences": {"note": "Chains of the proteins cited; added tags and fusions are not shown.", "UniProt P33981, whole entry": "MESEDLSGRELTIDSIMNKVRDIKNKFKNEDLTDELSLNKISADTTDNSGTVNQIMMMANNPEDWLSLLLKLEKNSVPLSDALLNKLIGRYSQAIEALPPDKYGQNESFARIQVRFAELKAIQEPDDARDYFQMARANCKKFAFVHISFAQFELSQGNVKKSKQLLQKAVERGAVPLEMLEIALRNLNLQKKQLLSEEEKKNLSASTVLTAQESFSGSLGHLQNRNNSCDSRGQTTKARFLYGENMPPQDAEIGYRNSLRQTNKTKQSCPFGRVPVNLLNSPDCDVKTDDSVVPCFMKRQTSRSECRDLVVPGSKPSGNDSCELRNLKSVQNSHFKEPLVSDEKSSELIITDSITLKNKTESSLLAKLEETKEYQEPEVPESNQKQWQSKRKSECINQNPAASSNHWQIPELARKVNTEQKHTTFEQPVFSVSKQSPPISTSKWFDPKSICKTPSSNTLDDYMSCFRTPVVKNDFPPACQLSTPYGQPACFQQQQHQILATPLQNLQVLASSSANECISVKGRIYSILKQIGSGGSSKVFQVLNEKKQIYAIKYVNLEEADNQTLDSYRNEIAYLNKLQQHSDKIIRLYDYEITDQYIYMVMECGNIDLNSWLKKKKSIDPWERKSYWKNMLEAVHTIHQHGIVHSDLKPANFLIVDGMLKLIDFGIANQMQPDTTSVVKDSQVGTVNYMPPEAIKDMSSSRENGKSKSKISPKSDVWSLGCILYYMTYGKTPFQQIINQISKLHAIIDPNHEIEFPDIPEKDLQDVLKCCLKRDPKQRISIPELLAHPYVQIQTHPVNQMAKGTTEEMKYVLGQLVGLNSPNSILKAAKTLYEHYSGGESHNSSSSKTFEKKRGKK"}, "source": "patent US9255100B2", "about": "(BAYER INTELLECTUAL PROPERTY GMBH, priority 2010, dated 2016)", "biological_target": "N-terminally GST-tagged human full length recombinant Mps-1 kinase (Homo sapiens, UniProt P33981)", "assay": "Mps-1 kinase assay (TR-FRET)", "type": "biochemical", "conditions": "read-out: Mps1 IC50, 10 μM ATP, 1 μM peptide substrate, 60 min at 22° C.", "data": [{"molecule": "Cc1cc(-c2cnc3c(NCC4CCSCC4)cc(Oc4cccnc4)nn23)ccc1C(=O)NC1CC1", "values": [{"measurement": "IC50", "value": 0.1, "unit": "nM"}]}]}
